Measured values published in patent US10513539B2, “Hydrophobic modified peptides and their use for liver specific targeting” (Ruprecht-Karls-Universitat Heidelberg, priority 2011, dated 2019).

Legend:
[1] = test system: HepG2 cells; experiment: Cell viability assay (MTT) with HepG2 cells; details: 12 h of incubation, cells not expressing the peptide specific receptor (FIG. 7)
[2] = test system: primary mouse hepatocytes; experiment: Cell viability assay (MTT) with primary mouse hepatocytes
Description: Next it was analyzed if the modified doxorubicin is still cytotoxic to cells. In this experiment primary mouse hepatocytes isolated from C57BL/6 mice as described in Galle et al., (1994) (37) were incubated and reseeded in 96 well flat bottom plates to form a confluent cell layer. […] The cells were then incubated for 12 h (FIG. 6A) or 24 h (FIG. 6B), respectively. After incubation an MTT assay (Cell proliferation Kit, Roche Mannheim Germany) was performed as indicated by the manufacturer's instructions to determine remaining cell viability. The results are shown in FIGS. 6A and 6B (Cell Viability Assay).

**Q.** With “Myristoyl-[K-Doxorubicin]-NLSTSNPLGFFPDHQLDPy (SEQ ID NO:21)-amide [HBVpreS/myr-[K-Doxorubicin]3-20y]” as the substance, how does the cytotoxic activity [1] read?
**A.** The cytotoxic activity was “no cytotoxic activity”.

**Q.** And the cytotoxic effects ([2]; after 12 h incubation (FIG. 6A))?
**A.** The cytotoxic effects was “significant cytotoxic effects”.

**Q.** And the cytotoxic effects ([2]; after 24 h incubation (FIG. 6B))?
**A.** The cytotoxic effects was “significant cytotoxic effects”.
